Patent US7507717B2 (Xenome Ltd., priority 2002, dated 2009)

The chains behind the UniProt entries cited, without tags or fusion partners.
UniProt P23975, whole entry: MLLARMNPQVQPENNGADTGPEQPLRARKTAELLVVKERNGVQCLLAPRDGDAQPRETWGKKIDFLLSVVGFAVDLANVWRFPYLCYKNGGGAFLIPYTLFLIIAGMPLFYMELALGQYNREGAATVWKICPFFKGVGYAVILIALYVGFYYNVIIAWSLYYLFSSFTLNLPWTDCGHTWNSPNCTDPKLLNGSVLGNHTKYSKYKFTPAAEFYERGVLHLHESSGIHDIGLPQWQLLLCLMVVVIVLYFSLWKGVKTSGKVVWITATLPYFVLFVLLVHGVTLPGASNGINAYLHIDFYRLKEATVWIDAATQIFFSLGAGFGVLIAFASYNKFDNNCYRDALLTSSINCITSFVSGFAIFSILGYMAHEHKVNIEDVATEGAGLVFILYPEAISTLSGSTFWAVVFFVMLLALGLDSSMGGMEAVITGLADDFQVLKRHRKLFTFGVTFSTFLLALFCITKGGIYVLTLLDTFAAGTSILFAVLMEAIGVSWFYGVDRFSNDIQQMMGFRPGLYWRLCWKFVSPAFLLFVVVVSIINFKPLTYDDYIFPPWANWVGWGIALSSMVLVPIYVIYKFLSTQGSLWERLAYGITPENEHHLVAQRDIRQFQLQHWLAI

Legend:
[1] = target: T1, human noradrenaline transporter (hNET) (Homo sapiens, UniProt P23975); assay: cell-based
T1 construct: expressed in transfected cells; host or cells: COS-7 cells (ATCC), transient transfection with metafectene

[2] = target: T1, human noradrenaline transporter (hNET); assay: biochemical; assay type: binding; settings: for pIC50: Av IC50 Displacement of 3H-nisoxetine from hNET

## CC[C@H](NC(=O)CNC(=O)[C@@H](N)CC(N)=O)C(=O)N[C@H]1CSSC[C@@H](C(N)=O)NC(=O)[C@@H]2C[C@@H](O)CN2C(=O)[C@H](Cc2c[nH]cn2)NC(=O)[C@@H]2CSSC[C@H](NC1=O)C(=O)NCC(=O)N[C@@H](Cc1ccc(O)cc1)C(=O)N[C@@H](CCCCN)C(=O)N[C@@H](CC(C)C)C(=O)N2 [compound 160]
[1]
  pIC50: 6.04
[2]
  pIC50: 5.30

## CC(C)C[C@@H]1NC(=O)[C@H](CCCCN(C)C)NC(=O)[C@H](Cc2ccc(O)cc2)NC(=O)CNC(=O)[C@@H]2CSSC[C@H](NC1=O)C(=O)N[C@@H](Cc1c[nH]cn1)C(=O)N1C[C@H](O)C[C@H]1C(=O)N[C@H](C(N)=O)CSSC[C@H](NC(=O)[C@@H](NC(=O)CNC(=O)[C@@H](N)CC(N)=O)C(C)C)C(=O)N2 [compound 167]
[1]
  pIC50: 5.84
[2]
  pIC50: 5.07

## CC(C)C[C@@H]1NC(=O)[C@H](CCCCN)NC(=O)[C@H](CCc2ccc(O)cc2)NC(=O)CNC(=O)[C@@H]2CSSC[C@H](NC1=O)C(=O)N[C@@H](Cc1c[nH]cn1)C(=O)N1C[C@H](O)C[C@H]1C(=O)N[C@H](C(N)=O)CSSC[C@H](NC(=O)[C@@H](NC(=O)CNC(=O)[C@@H](N)CC(N)=O)C(C)C)C(=O)N2 [compound 168]
[1]
  pIC50: 5.58
[2]
  pIC50: 5.04

## CC(C)C[C@@H]1NC(=O)[C@H](CCCCN)NC(=O)[C@H](Cc2ccc(O)cc2)NC(=O)CNC(=O)[C@@H]2CSSC[C@H](NC1=O)C(=O)N[C@@H](Cc1c[nH]cn1)C(=O)N1C[C@H](O)C[C@H]1C(=O)N[C@H](C(N)=O)CSSC[C@H](N)C(=O)N2 [compound 173]
[1]
  pIC50: 5.38
[2]
  pIC50: 4.89

## CC(C)C[C@@H]1NC(=O)[C@H](C)NC(=O)[C@H](Cc2ccc(O)cc2)NC(=O)CNC(=O)[C@@H]2CSSC[C@H](NC1=O)C(=O)N[C@@H](Cc1c[nH]cn1)C(=O)N1C[C@H](O)C[C@H]1C(=O)N[C@H](C(N)=O)CSSC[C@H](NC(=O)[C@@H](NC(=O)CNC(=O)[C@@H](N)CC(N)=O)C(C)C)C(=O)N2 [compound 203]
[1]
  pIC50: 4.86
[2]
  Av IC50 Displacement of 3H-nisoxetine from hNET: −2.00

pIC50: −log10 of the molar value.
